Earlier results in patent US20230413823A1, “HYPERLOADED YEAST CELL WALL PARTICLE AND USES THEREOF” (priority 2022, published 2023).

Details: Table 1; cited from earlier work

C=CCc1ccc(O)c(OC)c1 [Eugenol]
Log P: 2.3
